Source: article PMC4919643, “Intestinally-targeted TGR5 agonists equipped with quaternary ammonium have an improved hypoglycemic effect and reduced gallbladder filling effect” (Scientific Reports, 2016)
Like-named read-outs stand apart in the source and are kept apart here.

Amino acid sequences for entries named in this document (tags omitted).
UniProt Q80SS6, whole entry: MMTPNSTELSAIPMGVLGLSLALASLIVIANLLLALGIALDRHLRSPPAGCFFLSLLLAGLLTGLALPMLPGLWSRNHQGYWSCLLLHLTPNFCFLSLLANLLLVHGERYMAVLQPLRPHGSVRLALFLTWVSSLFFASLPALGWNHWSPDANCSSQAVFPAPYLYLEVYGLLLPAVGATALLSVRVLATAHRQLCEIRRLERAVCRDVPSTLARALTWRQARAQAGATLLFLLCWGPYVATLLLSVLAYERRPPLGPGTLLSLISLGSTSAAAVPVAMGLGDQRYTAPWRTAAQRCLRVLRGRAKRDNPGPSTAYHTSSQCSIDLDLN
UniProt Q8TDU6, whole entry: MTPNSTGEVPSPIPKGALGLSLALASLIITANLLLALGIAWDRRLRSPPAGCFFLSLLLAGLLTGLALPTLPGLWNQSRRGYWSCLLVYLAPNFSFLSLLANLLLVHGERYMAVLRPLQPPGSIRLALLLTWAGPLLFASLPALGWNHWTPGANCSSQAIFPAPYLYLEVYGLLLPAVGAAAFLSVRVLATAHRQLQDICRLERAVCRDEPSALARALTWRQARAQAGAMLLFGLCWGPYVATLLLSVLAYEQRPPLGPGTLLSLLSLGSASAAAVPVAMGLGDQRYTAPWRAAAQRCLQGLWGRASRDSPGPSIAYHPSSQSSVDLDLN

Experiments:
[1] = molecular target: mouse TGR5 (Mus musculus, UniProt Q80SS6); test: In vitro TGR5 reporter gene assay (mTGR5/CRE/HEK293); settings: read-out: mTGR5 EC50, CRE-luciferase reporter in HEK293, mean ± SD of three independent experiments
[2] = test system: Caco-2 cells; test: Caco-2 permeability determination; format: in vitro ADME; settings: tested form: TFA
[3] = molecular target: human TGR5 (Homo sapiens, UniProt Q8TDU6); test: In vitro TGR5 reporter gene assay (hTGR5/CRE/HEK293); settings: read-out: hTGR5 EC50, CRE-luciferase reporter in HEK293, mean ± SD of three independent experiments
[4] = Solubility as noted in the SAR discussion; format: physicochemical; settings: compounds containing Br

| EC50 ([1]; tested form: TFA) | EC50 ([3]; tested form: TFA) | EC50 [1] | EC50 [3] | SMILES | other results |
| --- | --- | --- | --- | --- | --- |
| 8.7 nM |  |  |  | CN(CC[N+](C)(C)C)C(=O)CCCc1cc(Cl)c(Oc2ccsc2C(=O)N2CCN(C3CC3)c3ccccc32)cc1Cl |  |
| 2.8 nM | 4.5 nM |  |  | C[N+](C)(C)C1CCN(C(=O)CCc2cc(Cl)c(Oc3ccsc3C(=O)N3CCN(C4CC4)c4ccccc43)cc2Cl)CC1 | Papp A to B ([2]; Caco-2, apical to basolateral side): 0.2 10^−6 cm/s; Papp B to A ([2]; Caco-2, basolateral to apical side): 0.84 10^−6 cm/s; Efflux ratio ([2]; Caco-2): 4.1 |
| 3.1 nM | 4.7 nM |  |  | CCN(CC[N+](C)(C)C)C(=O)CCc1cc(Cl)c(Oc2ccsc2C(=O)N2CCN(C3CC3)c3ccccc32)cc1Cl |  |
| 1.2 nM | 8.7 nM |  |  | C[N+]1(C)CCN(C(=O)CCc2cc(Cl)c(Oc3ccsc3C(=O)N3CCN(C4CC4)c4ccccc43)cc2Cl)CC1 |  |
|  |  | 290 nM | 242 nM | C[N+](C)(CCCN(CCC[N+](C)(C)CC(=O)[O-])C(=O)CCc1cc(Cl)c(Oc2ccsc2C(=O)N2CCN(C3CC3)c3ccccc32)cc1Cl)CC(=O)[O-] |  |
|  |  | 1.3 nM | 0.68 nM | O=C(c1sccc1Oc1ccc(C(F)(F)F)cc1Br)N1CCN(C2CC2)c2ccccc21 | solubility (in words) [4]: poor solubility |
|  |  |  | 40 nM | O=C(c1sccc1Oc1ccc(C(F)(F)F)cc1)N1CCN(C2CC2)c2ccccc21 |  |
|  |  | 6.9 nM | 2.7 nM | CN1CCN(C(=O)c2sccc2Oc2ccc(C(F)(F)F)cc2Cl)c2ccccc21 |  |
| 16 nM | 12 nM |  |  | CN(CC[N+](C)(C)C)C(=O)/C=C/c1cc(Cl)c(Oc2ccsc2C(=O)N2CCN(C3CC3)c3ccccc32)cc1Cl |  |
| 4.9 nM | 6.6 nM |  |  | CN(CCC[N+](C)(C)C)C(=O)CCc1cc(Cl)c(Oc2ccsc2C(=O)N2CCN(C3CC3)c3ccccc32)cc1Cl |  |
|  |  | 1.7 nM | 0.49 nM | O=C(c1sccc1Oc1cc(Cl)c(Br)cc1Cl)N1CCN(C2CC2)c2ccccc21 | solubility (in words) [4]: poor solubility |
|  |  | 12 nM | 6.6 nM | Cc1cc(C(F)(F)F)ccc1Oc1ccsc1C(=O)N1CCN(C)c2ccccc21 |  |
|  |  |  | 54 nM | CN1CCN(C(=O)c2sccc2Oc2cccc(Cl)c2)c2ccccc21 |  |
|  |  | 5.6 nM | 1.7 nM | CN1CCN(C(=O)c2sccc2Oc2ccc(C(F)(F)F)cc2Br)c2ccccc21 | solubility (in words) [4]: poor solubility |
| 215 nM | 805 nM |  |  | CN(CC[N+](C)(C)C)C(=O)c1cc(Cl)c(Oc2ccsc2C(=O)N2CCN(C3CC3)c3ccccc32)cc1Cl |  |
|  |  | 16 nM | 66 nM | C[N+](C)(C)CCN(CCC(=O)[O-])C(=O)CCc1cc(Cl)c(Oc2ccsc2C(=O)N2CCN(C3CC3)c3ccccc32)cc1Cl |  |
|  |  | 15 nM | 2 nM | CN1CCN(C(=O)c2sccc2Oc2cc(Cl)ccc2Cl)c2ccccc21 |  |
| 13 nM | 24 nM |  |  | CN(CC[N+](C)(C)C)C(=O)C/C=C/c1cc(Cl)c(Oc2ccsc2C(=O)N2CCN(C3CC3)c3ccccc32)cc1Cl |  |
|  |  |  | 26 nM | O=C(c1sccc1Oc1cccc(Cl)c1)N1CCN(C2CC2)c2ccccc21 |  |
